Experimental data as given in patent publication US4521428A, “Anorexigenic trifluoromethylphenyltetrahydropyridines and pharmaceutical compositions containing them” (Sanofi, priority 1982, dated 1985).
Where two headings read alike, the source gives them in different places.

Key:
[1] = acute toxicity in the rat (LD50) by the oral or intraperitoneal route; settings: in vivo, read-out: A/B (LD50/ID50, therapeutic index)
Description: the acute toxicity, expressed as LD50 in the rat by the oral or intraperitoneal route (A);
the ratio between the acute toxicity and the anorectic activity which expresses the therapeutic index related to the acute toxicity (A/B).

serotonin uptake = settings: cited from earlier work

Compound: CCNC(C)Cc1cccc(C(F)(F)F)c1 (stereo not drawn) [Fenfluramine, reference compound]
- selectivity ratio ([1]; ip): 64.6
- selectivity ratio ([1]; os): 92
- serotonin uptake (background) (serotonin uptake): inhibition of the serotonin uptake
